# Laboratory results reported in ChEMBL document CHEMBL1147596, “Subtype selective NMDA receptor antagonists: evaluation of some novel alkynyl analogues” (Bioorg Med Chem Lett, 2004).
# By UniProt entry, the sequences of proteins in these tests, tags left out.
# UniProt Q00960, whole entry: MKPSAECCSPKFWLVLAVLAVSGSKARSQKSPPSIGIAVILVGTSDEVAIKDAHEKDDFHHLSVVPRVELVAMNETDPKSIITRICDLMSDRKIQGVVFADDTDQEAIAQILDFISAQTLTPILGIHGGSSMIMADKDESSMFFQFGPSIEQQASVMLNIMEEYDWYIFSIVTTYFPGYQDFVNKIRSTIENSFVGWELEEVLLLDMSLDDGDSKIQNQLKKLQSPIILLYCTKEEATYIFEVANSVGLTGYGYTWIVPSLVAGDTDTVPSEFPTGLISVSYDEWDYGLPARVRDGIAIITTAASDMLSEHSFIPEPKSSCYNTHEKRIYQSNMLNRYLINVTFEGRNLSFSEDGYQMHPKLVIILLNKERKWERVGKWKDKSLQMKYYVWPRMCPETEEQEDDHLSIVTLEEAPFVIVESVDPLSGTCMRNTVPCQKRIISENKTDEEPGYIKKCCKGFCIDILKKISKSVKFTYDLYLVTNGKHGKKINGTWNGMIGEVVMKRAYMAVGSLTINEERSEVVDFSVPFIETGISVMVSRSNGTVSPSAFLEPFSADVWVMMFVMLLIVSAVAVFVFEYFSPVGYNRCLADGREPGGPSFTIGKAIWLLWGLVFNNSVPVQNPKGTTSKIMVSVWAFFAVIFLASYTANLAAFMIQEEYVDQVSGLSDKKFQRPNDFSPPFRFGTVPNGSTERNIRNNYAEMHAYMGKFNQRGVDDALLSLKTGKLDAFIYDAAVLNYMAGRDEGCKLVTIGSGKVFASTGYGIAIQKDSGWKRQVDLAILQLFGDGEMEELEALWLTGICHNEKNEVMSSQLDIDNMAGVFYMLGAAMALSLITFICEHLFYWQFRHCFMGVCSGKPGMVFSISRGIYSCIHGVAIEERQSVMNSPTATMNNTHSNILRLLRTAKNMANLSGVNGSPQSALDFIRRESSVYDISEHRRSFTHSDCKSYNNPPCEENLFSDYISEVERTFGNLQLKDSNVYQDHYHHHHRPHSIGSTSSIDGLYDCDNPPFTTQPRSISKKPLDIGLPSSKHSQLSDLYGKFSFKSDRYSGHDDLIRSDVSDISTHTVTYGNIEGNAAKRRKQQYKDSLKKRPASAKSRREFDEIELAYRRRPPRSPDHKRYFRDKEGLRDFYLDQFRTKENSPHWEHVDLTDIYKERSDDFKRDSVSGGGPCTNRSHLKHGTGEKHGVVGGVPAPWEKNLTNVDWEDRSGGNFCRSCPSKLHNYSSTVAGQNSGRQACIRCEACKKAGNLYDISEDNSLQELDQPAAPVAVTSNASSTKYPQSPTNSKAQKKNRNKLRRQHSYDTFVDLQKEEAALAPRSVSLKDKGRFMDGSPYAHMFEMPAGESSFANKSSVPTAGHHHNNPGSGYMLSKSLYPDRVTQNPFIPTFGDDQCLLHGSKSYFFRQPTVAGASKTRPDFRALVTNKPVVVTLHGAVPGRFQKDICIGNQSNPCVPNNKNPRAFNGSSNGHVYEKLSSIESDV
# Biological target: Glutamate NMDA receptor; Grin1/Grin2b (Rattus norvegicus, UniProt P35439+Q00960)
# Test: Binding affinity against NR1A/2B receptor in rat brains by [3H]ifenprodil displacement.
# Type: tissue-based, Brain
smiles,measurement,value
Oc1nc2cc(C#CCN3CCC(Cc4ccc(F)cc4)CC3)ccc2[nH]1,IC50,3 nM
